Experimental data from ChEMBL document CHEMBL1129750, “Bicyclic N-hydroxyurea inhibitors of 5-lipoxygenase: pharmacodynamic, pharmacokinetic, and in vitro metabolic studies characterizing N-hydroxy-N-(2,3-dihydro-6-(phenylmethoxy)-3-benzofuranyl)urea” (J Med Chem, 1996).

Molecular target: T1, Polyunsaturated fatty acid 5-lipoxygenase (Rattus norvegicus, UniProt P12527)
T1 sequence (P12527 whole entry): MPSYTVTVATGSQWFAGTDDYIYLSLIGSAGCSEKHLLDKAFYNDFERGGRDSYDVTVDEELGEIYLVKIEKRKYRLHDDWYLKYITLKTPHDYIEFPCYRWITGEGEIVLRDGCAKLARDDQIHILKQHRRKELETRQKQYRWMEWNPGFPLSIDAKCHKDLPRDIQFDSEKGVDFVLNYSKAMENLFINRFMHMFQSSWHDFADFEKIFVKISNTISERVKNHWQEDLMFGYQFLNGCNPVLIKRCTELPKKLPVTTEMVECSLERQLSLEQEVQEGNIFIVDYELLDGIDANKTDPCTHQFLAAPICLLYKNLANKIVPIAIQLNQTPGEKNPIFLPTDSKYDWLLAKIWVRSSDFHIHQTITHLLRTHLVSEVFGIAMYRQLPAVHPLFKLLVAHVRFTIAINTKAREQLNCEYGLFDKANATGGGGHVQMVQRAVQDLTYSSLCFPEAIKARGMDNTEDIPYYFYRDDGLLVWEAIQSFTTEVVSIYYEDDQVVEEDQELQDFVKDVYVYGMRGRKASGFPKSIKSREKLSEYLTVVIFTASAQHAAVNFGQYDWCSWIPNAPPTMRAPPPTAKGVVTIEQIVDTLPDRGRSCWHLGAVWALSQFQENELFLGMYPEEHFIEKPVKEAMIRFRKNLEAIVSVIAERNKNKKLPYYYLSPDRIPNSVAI
Experiment: Inhibitory activity against rat 5-lipoxygenase by using continuous oxygen consumption assay.
How it was run: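 Semipurified cytosolic 5-LO from rat basophilic leukemia (RBL-1) cells; continuous oxygen-electrode assay of oxygen consumption; IC50.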

An IC50 of 450 nM was found for `Cc1c2n(c3ccc(Oc4ccccc4)cc13)CCC2N(O)C(N)=O` (stereo unspecified) in this work.
